Earlier results on one substance are cited in paper PMC9537296 (Scientific Reports, 2022).

The conditions of the series: in vivo; cited from earlier work.

Regarding Dasiglucagon, the T1/2 is ~ 30 min.
